Biological target: TGFβ R1 (Homo sapiens, UniProt P36897)
Experiment: TGFβ R1 autophosphorylation protocol
Settings: read-out: IC50 for Kinase Inhibition; 10 uM ATP, 170 nM TGFβ R1, 20 minutes at room temperature
Experimental: The compounds of the invention were tested for their ability to inhibit TGFβ by a TGFβ R^1 autophosphorylation protocol. This was conducted as follows: Compound dilutions and reagents were prepared fresh daily. Compounds were diluted from DMSO stock solutions to 2 times the desired assay concentration, keeping final DMSO concentration in the assay less than or equal to 1%. TGFβ R1 was diluted to 4 times the desired assay concentration in buffer+DTT. ATP was diluted into 4× reaction buffer, and gamma-^33P-ATP was added at 60 uCi/mL.
The assay was performed by adding 10 ul of the enzyme to 20 ul of the compound solution. The reaction was initiated by the addition of 10 ul of ATP mix. Final assay conditions included 10 uM ATP, 170 nM TGFβ R1, and […] in 20 mM MOPS, pH7. The reactions were incubated at room temperature for 20 minutes. The reactions were stopped by transferring 23 ul of reaction mixture onto a phosphocellulose 96-well filter plate, which had been pre-wetted with 15 ul of 0.25M H3PO4 per well. After 5 minutes, the wells were washed 4× with 75 mM H3PO4 and once with 95% ethanol. The plate was dried, scintillation cocktail was added to each well, and the wells were counted in a Packard TopCount microplate scintillation counter.

By UniProt entry, the sequences of proteins in these tests, tags left out. Residues count along the entry.
UniProt P36897, 34-503 limits assumed: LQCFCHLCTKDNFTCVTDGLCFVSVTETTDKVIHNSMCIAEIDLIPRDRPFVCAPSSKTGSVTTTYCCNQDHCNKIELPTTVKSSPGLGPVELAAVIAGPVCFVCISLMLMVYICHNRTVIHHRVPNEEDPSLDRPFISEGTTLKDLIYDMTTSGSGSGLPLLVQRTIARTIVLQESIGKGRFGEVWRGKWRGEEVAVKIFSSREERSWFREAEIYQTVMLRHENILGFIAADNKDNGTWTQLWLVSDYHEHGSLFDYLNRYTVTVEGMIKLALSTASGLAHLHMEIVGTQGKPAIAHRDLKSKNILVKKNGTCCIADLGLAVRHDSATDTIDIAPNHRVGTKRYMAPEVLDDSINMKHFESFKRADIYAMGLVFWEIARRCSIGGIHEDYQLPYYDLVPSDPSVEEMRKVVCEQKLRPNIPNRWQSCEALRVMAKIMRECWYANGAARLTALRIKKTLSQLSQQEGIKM

Work on `COc1ccc(CNc2ccc3c(Nc4ccncc4C(=O)NCCCN)nc(-c4cc(Cl)ccc4F)nc3n2)cc1` yielded an IC50 of 3.46 µM.

From patent US20070066632A1, “Fused bicyclic inhibitors of TGFbeta” (Scios, Inc., priority 2005, published 2007)
